In the data set the test system is O=[N+]([O-])c1ccc(O)cc1. Nature of the data set: purified protein. As to conditions: 200 μM NADH, 25 μM FAD, 50 mM phosphate pH 7.5.

The Km is the concentration of substrate that gives half-maximal velocity. As to “two-component 4-CP monooxygenase (H6-CphA1 and H6-CphA2) (Rhodococcus sp. (in: high G+C Gram-positive bacteria))”, the Km worked out at 12.1 ± 1.8 µM.

These data come from publication PMC6205950, “4-Chlorophenol Oxidation Depends on the Activation of an AraC-Type Transcriptional Regulator, CphR, in Rhodococcus sp. Strain YH-5B” (Frontiers in Microbiology, 2018).
